Assay results published in patent US12178841B2 (dated 2024).

Legend:
[1] = summary of product characteristics for Promixin; cited from earlier work

In the case of colistimethate sodium, the “P. aeruginosa acquiring resistance to colistimethate sodium during clinical use” value [1] is given as “reports of P. aeruginosa acquiring resistance”, the “development of colistimethate resistance (in words)” value (Pseudomonas aeruginosa; active vs placebo groups) is given as “no data suggestive of development of colistimethate resistance” and the “development of P. aeruginosa resistance to colistin sulphate (antibiotic resistance)” value (Pseudomonas aeruginosa; patients on CMS treatment) is given as 1%.
